# Earlier results as cited in patent publication US20240374569A1, “HDAC3 INHIBITORS FOR THE TREATMENT OF LANGERHANS CELL HISTIOCYTOSIS AND LANGERHANS CELL SARCOMA” (HENRY FORD HEALTH SYSTEM, priority 2021, published 2024).
# Test system: BRAF (V600)-mutated metastatic melanoma
# Settings: phase 1 and 2 trials, patients; cited from earlier work
compound,measurement,value
CC(C)(C)c1nc(-c2cccc(NS(=O)(=O)c3c(F)cccc3F)c2F)c(-c2ccnc(N)n2)s1 [Dabrafenib],safety profile,manageable safety profile
